Values of other authors as cited in patent US9427426B2 (priority 2008, dated 2016).

Settings: in man; cited from earlier work

## mercury
  half-life: 40 to 70 days
